Measured values from patent publication US20180112258A1, “MEDICAL USES AND METHODS FOR TREATING CANCER USING MONOPOLAR SPINDLE 1 (MPS1) KINASE INHIBITORS” (THE INSTITUTE OF CANCER RESEARCH: ROYAL CANCER HOSPITAL, priority 2015, published 2018).

Assays:
[1] = system: DLD1 Flp-In T-Rex cells expressing wild-type MPS1; details: over-expression of wild-type MPS1
[2] = system: HCT116 cells containing MPS1 p.M600T; assay: Cell viability assay, HCT116 NvR clones with MPS1 p.M600T (NvR1 etc.)
[3] = system: HCT116 cells containing MPS1 p.C604W; assay: Cell viability assay, HCT116 NvR clones with MPS1 p.C604W (NvR12 etc.)
[4] = target: T1, recombinant full-length MPS1 p.C604W (Homo sapiens, UniProt P33981, C604W); assay: Recombinant MPS1 kinase assay (electrophoretic mobility shift), p.C604W; assay type: biochemical; details: in vitro (Table 2)
T1 construct: made in house; host or cells: Sf9 insect cells (baculovirus, modified pFastBac1)
T1 sequence (P33981 1-857 C604W): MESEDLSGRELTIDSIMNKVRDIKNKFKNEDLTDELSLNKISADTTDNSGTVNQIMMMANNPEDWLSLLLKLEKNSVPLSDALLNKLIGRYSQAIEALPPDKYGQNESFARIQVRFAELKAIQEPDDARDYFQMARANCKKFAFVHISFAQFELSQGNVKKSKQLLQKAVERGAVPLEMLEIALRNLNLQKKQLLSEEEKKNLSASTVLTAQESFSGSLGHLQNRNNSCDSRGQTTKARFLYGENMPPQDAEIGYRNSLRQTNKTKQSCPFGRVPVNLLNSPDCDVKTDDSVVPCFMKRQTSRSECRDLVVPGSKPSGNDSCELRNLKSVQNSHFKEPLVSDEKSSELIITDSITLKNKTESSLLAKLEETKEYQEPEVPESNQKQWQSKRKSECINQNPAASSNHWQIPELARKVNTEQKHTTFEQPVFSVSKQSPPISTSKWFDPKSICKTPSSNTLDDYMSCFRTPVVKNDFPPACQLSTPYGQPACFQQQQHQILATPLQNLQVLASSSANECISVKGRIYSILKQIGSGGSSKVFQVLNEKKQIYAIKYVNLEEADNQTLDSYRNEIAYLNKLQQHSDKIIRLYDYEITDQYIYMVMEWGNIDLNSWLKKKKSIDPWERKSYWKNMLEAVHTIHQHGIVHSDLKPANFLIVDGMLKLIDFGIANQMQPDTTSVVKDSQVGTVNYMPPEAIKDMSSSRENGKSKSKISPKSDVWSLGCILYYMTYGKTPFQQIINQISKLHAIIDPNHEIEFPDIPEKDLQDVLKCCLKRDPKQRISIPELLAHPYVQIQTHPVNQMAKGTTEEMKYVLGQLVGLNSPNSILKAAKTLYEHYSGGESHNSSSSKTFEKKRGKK
Experimental: For high ATP concentration assays, 1 mM ATP was used. An ECHO® 550 (Labcyte Inc) acoustic dispenser was used to generate duplicate 8 point dilution curves directly into 384-well low-volume polystyrene assay plates (Corning Life Sciences). The reaction was carried out for 90 min at room temperature.

| SMILES | resistance conferred by construct in viability assay [1] | Resistance conferred by mutation p.M600T [2] | resistance in cell viability assay vs parental [2] | Resistance conferred by mutation p.C604W [3] | fold more active against recombinant p.C604W than wild-type protein [4] | fold resistance in cell viability assay vs parental [2] [fold] | resistance / potency in cell viability assay vs parental ([3]; p.C604W (NvR12)) | fold more effective towards NvR12 than parental HCT116 cells ([3]; p.C604W (NvR12), 4-day cell viability assay) [fold] |
| --- | --- | --- | --- | --- | --- | --- | --- | --- |
| COc1cc(OC2CCN(C)CC2)ccc1Nc1ncc2c(n1)n(C1CCCC1)c(=O)n2C [AZ3146] | unable to confer resistance | R | able to confer resistance | R |  |  |  |  |
| Cc1ncc(-c2ccc(Nc3cc4c(cn3)cc(-c3cnn(C)c3)n4C(=O)OC(C)C)cc2)n1C [Compound 2, Isopropyl 6-(4-(1,2-dimethyl-1H-imidazol-5-yl)-2-phenylamino)-2-(1-methyl-1H-pyrazol-4-yl)-1H-pyrrolo[3,2-c]pyridine-1-carboxylate] |  | R |  |  | approximately 5 fold | ~2 | more potent | 5 |
